Patent publication US7112574B2, “C2,8-disubstituted adenosine derivatives and their different uses” (priority 2001, dated 2006)

By UniProt entry, the sequences of proteins in these tests, tags left out. Where a name states a change or a piece, a line headed by the entry shows the natural chain unless it says otherwise.
UniProt P30543, whole entry: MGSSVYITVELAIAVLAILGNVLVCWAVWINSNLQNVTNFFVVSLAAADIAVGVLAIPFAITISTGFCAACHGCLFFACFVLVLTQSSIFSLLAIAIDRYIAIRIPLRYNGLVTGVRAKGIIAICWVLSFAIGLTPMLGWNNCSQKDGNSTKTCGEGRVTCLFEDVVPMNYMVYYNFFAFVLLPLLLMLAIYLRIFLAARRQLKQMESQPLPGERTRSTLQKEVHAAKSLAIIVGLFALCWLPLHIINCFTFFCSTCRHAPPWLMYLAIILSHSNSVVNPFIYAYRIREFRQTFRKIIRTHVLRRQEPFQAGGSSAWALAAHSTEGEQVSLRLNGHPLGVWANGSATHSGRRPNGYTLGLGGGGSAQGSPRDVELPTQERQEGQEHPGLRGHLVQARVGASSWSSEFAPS
UniProt P25099, whole entry: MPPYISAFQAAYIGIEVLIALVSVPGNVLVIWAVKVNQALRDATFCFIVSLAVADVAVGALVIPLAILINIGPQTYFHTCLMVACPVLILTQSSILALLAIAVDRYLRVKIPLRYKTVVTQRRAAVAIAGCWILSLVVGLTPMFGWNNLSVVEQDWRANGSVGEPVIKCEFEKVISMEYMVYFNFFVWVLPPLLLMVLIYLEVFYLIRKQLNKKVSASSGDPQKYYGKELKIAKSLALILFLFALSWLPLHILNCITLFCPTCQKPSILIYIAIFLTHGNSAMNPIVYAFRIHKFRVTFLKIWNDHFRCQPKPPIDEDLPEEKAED

Legend:
adenosine A2A receptor = adenosine A2A receptor (Rattus norvegicus, UniProt P30543); conditions: ratio of Ki A3 (human) to Ki A2A (rat)
adenosine A1 receptor = adenosine A1 receptor (Rattus norvegicus, UniProt P25099); assay: biochemical; conditions: read-out: % displacement at 10^-5 M, A1

**Q.** Which results are given for `CCCCC#Cc1nc(N)c2ncn([C@@H]3O[C@H](CO)[C@@H](O)[C@H]3O)c2n1` [Compound 3, 2-(1-hexynyl)adenosine]?
**A.** A3/A2A (adenosine A2A receptor): 2.78; inhibition at 10 µM (adenosine A1 receptor): 63.7%
